This is a selection; strong and weak results do not stand in their true shares. Some results for these compounds are left out of this collection, so the calls shown say nothing about other tests. Activity calls are given as the source filed them.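 How the source made its calls: active means primary screen active and over 50% activation in each of two duplicate runs; inactive means the rest.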

The test system of this assay is transient receptor potential cation channel C4 beta (TRPC4), mouse. Kind of assay: TRPC4 cation channel opening, second retest – cell-based, second round, Fluo4, HEK293 TRPC4beta/mu-opioid, 1 µM, confirmation (AID 2461). Conditions: Fluo4 calcium fluorescence, at 1 µM.
For the compound `CN(C)c1ccc(C(=O)NCC2(N(C)C)CCCCC2)cc1`, the result was inactive.

Values taken from PubChem BioAssay AID2461 (Johns Hopkins Ion Channel Center, 2010).
